ChEMBL document CHEMBL5223134, “Pipeline Impact of Radiolabeled Compounds in Drug Discovery and Development” (ACS Med Chem Lett, 2022)

By UniProt entry, the sequences of proteins in these tests, tags left out. Where a name states a change or a piece, a line headed by the entry shows the natural chain unless it says otherwise.
UniProt Q99572: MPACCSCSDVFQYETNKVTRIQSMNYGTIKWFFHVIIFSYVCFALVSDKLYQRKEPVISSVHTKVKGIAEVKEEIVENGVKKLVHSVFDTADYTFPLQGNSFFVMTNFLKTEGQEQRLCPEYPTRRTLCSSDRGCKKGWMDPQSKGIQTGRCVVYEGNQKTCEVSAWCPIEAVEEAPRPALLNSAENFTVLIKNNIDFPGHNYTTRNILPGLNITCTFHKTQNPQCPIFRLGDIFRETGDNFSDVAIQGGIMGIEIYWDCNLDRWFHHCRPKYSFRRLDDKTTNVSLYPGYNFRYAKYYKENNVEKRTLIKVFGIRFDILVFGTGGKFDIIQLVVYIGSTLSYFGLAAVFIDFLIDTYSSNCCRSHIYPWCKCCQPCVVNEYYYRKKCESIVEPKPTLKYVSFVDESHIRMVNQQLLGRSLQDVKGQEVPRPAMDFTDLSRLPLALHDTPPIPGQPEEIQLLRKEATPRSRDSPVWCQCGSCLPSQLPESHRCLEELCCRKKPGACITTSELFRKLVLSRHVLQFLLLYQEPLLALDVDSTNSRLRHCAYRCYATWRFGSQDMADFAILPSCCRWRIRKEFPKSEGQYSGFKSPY

What was measured:
P2X purinoceptor 7 [1] = biological target: P2X purinoceptor 7 (Homo sapiens, UniProt Q99572); assay: Antagonist activity against human P2X7R expressed in human 1321N1 cell membrane incubated for 1 hrs by radioligand binding assay; assay type: cell membranes
P2X purinoceptor 7 [2] = biological target: T1, P2X purinoceptor 7 (Mus musculus, UniProt Q9Z1M0); assay: Antagonist activity against mouse P2X7R expressed in human 1321N1 cell membrane incubated for 1 hrs by radioligand binding assay; assay type: cell membranes
T1 sequence (Q9Z1M0 whole entry): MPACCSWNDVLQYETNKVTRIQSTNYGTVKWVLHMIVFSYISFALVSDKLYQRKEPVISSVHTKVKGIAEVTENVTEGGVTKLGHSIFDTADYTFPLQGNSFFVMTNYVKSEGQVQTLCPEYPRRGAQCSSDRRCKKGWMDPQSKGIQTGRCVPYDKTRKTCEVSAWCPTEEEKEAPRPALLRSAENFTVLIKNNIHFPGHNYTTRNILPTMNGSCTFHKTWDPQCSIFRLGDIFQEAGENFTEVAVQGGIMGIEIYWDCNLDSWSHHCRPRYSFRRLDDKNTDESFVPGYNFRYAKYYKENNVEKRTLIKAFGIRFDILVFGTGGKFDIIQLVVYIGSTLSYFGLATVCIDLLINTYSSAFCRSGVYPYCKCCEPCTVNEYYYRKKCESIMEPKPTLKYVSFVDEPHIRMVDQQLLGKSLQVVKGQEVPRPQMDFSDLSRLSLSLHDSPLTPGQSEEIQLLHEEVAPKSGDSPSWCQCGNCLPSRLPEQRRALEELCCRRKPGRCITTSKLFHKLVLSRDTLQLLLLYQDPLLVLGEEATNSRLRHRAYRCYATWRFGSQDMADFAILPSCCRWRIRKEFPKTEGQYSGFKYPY

IC50 (P2X purinoceptor 7 [1]): 11 nM | IC50 (P2X purinoceptor 7 [2]): 9 nM
SMILES: [3H]c1ccc([C@H](C)N/C(=N/C#N)Nc2cccc3ncccc23)cc1
